Measurements reported in ChEMBL document CHEMBL1144389, “Optimization of purine based PDE1/PDE5 inhibitors to a potent and selective PDE5 inhibitor for the treatment of male ED” (Bioorg Med Chem Lett, 2005).

Sequences of proteins named here, by UniProt entry; tags and fusion partners are left off. A change or cut given only in a name is not applied to a line headed by its entry.
UniProt O00408, whole entry: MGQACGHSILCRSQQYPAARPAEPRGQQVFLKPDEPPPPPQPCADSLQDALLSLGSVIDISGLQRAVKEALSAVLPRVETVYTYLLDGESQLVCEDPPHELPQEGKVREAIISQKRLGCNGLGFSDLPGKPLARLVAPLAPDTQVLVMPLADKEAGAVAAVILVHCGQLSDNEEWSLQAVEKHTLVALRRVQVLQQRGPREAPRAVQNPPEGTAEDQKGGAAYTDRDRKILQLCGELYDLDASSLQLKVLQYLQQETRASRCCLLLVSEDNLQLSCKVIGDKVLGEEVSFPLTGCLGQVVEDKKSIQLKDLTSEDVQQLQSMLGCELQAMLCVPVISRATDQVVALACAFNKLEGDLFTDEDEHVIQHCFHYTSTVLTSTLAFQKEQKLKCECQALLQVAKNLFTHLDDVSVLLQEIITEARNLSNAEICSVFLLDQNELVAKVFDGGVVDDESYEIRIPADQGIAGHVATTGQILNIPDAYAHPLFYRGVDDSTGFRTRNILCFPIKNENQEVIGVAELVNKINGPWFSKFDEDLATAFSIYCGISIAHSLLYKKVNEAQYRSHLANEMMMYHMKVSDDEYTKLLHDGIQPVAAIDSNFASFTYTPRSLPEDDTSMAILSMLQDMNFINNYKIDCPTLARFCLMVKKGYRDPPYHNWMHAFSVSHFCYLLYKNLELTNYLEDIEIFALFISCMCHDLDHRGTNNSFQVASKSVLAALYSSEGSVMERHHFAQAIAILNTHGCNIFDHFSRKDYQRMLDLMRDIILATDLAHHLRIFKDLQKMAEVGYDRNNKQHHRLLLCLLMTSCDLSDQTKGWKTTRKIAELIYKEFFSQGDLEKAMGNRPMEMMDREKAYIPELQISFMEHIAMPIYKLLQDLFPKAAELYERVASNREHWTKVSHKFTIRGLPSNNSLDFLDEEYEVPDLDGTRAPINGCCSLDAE
UniProt O76083: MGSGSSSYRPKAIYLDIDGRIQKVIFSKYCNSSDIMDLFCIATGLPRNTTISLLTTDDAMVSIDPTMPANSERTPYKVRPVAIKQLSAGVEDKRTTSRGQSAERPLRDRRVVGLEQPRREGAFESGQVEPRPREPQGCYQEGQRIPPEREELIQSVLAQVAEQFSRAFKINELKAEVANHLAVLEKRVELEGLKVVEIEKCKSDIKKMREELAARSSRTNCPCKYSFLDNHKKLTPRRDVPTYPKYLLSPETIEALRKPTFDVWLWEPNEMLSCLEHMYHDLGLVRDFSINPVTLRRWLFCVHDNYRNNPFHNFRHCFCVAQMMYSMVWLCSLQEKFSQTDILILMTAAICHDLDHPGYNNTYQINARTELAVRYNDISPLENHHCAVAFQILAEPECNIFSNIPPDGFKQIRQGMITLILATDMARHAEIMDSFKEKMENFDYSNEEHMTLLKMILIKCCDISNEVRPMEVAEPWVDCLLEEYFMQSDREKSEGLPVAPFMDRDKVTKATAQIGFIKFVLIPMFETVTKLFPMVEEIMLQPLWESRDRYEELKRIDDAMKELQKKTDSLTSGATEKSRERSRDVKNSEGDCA

Assays:
[1] = molecular target: cGMP-specific 3',5'-cyclic phosphodiesterase (Homo sapiens, UniProt O76074); assay: Inhibition of human phosphodiesterase 5
[2] = molecular target: cGMP-dependent 3',5'-cyclic phosphodiesterase (Homo sapiens, UniProt O00408); assay: Inhibition of human phosphodiesterase 2
[3] = molecular target: High affinity cGMP-specific 3',5'-cyclic phosphodiesterase 9A (Homo sapiens, UniProt O76083); assay: Inhibition of Phosphodiesterase 9

SMILES | IC50 [1] | IC50 [2] | IC50 [3]
CCN1C(=O)c2c(nc(Br)n2Cc2ccc(OC)cc2)N2C[C@@H](Cc3ccccc3)N=C12 | 0.023 µM |  | 
CCCc1nn(C)c2c(=O)[nH]c(-c3cc(S(=O)(=O)N4CCN(C)CC4)ccc3OCC)nc12 |  | > 10 µM | 3.4 µM
